{"source": "patent US9930887B2", "about": "“Compound for increasing amino acid content in plant, and use thereof” (Okayama Prefecture, priority 2011, dated 2018)", "key": {"Arabidopsis [1]": {"test_system": "Arabidopsis", "conditions": "1 mM GSSG, 2 mM GSH, 3 mM NH4NO3"}, "Arabidopsis [2]": {"test_system": "Arabidopsis", "conditions": "for total free amino acid content relative to control condition (only water): 1 mM GSSG, 2 mM GSH or 3 mM NH4NO3, 25 mL per pot to roots once a week"}}, "note": "Like-named read-outs stand apart in the source and are kept apart here. Only a part of the results on these compounds is given; other tests are left out."}
{"substance": "ammonium nitrate", "values": [{"measurement": "asparagine content in a leaf", "setting": "Arabidopsis [1]; effect larger in leaf before photoirradiation (L0)", "value": "not observed"}, {"measurement": "serine content in a leaf", "setting": "Arabidopsis [1]; treatment combined with photoirradiation for 8 hours (L8, 100 μE/m^2/s)", "value": "not observed"}, {"measurement": "contents of individual free amino acids, ratio to control (Cont.) = 1 (FIG. 2)", "setting": "Arabidopsis [2]; 4 weeks from seeding, some amino acids (proline, tyrosine, asparagine, glutamine, glutamic acid, methionine, histidine, arginine, GABA, hydroxyproline, homoserine)", "value": "scarcely increased"}, {"measurement": "contents of individual free amino acids, ratio to control (Cont.) = 1 (FIG. 3)", "setting": "Arabidopsis [2]; 5 weeks from seeding, some amino acids (alanine, serine, proline, valine, tyrosine, isoleucine, leucine, asparagine, lysine, glutamine, histidine, arginine, GABA, hydroxyproline, homoserine)", "value": "scarcely increased"}, {"measurement": "total free amino acid content relative to control condition (only water)", "setting": "Arabidopsis [2]; plants after 4 weeks from seeding", "value": "not increased"}, {"measurement": "total free amino acid content relative to control condition (only water)", "setting": "Arabidopsis [2]; plants after 5 weeks from seeding", "value": "about 1.37 times"}]}
